Legend:
[1] = molecular target: WEE1 (Homo sapiens, UniProt P30291); assay: NanoBRET target engagement in HEK293T cells, WEE1; settings: read-out: WEE1 INHIBITION IC50, 2 h
[2] = molecular target: EPHB3 (Homo sapiens, UniProt P54753); assay: NanoBRET target engagement in HEK293T cells, EPHB3; settings: read-out: EPHB3 INHIBITION IC50, 2 h
[3] = system: OVCAR3 cells; assay: Cellular proliferation (Hoechst staining), OVCAR3; settings: read-out: OVCAR3 GI50; CCNE1-amplified, 4 days
[4] = system: SKOV3 cells; assay: Cellular proliferation (Hoechst staining), SKOV3; settings: read-out: SKOV3 GI50; CCNE1-nonamplified, 4 days
[5] = Metabolic stability in human liver microsomes (HLM); settings: human liver microsomes 1 mg/mL, 1 μM
[6] = Caco-2 cell permeability; settings: 10 μM; for Caco-2 A-B Papp: 2 h, 37 °C; for Caco-2 EFFLUX RATIO: Papp(B to A)/Papp(A to B)
[7] = molecular target: PKMYT1 (Homo sapiens, UniProt Q99640); assay: NanoBRET target engagement in HEK293T cells, PKMYT1; settings: read-out: PKMYT1 INHIBITION IC50, 2 h
[8] = molecular target: CDK1 pThr14 (PKMYT1 substrate), FUOV-1 cells (Homo sapiens, UniProt Q99640); assay: Functional CDK1 pThr14 AlphaLISA assay in FUOV-1 cells; settings: read-out: pCDk1(Thr14) INHIBITION IC50, 2 h
[9] = Log D octanol/PBS pH 7.4; settings: octanol/PBS pH 7.4, 1 μM
[10] = Aqueous (thermodynamic) solubility, pH 7.4; settings: 0.1 M phosphate buffer pH 7.4, 24 h, 25 °C

Chains of the proteins cited; added tags and fusions are not shown. Residues count along the entry.
UniProt P30291, whole entry: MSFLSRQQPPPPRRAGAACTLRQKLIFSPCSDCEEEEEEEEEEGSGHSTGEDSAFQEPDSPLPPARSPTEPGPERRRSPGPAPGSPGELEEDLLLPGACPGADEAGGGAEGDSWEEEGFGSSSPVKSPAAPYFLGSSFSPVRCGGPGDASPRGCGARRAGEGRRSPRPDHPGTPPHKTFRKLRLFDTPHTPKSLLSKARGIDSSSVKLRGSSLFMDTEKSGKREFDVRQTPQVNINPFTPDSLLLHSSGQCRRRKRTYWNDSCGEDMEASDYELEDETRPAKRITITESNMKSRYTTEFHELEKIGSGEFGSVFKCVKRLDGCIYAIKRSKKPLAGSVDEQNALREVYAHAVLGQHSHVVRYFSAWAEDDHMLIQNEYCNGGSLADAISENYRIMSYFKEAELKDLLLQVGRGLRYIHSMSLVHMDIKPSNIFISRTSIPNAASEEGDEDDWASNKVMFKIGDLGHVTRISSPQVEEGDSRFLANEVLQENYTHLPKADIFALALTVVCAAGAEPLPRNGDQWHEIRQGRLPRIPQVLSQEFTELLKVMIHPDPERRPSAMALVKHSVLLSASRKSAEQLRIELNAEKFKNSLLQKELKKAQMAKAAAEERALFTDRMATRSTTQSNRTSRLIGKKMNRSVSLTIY
UniProt P54753, 34-998 limits assumed: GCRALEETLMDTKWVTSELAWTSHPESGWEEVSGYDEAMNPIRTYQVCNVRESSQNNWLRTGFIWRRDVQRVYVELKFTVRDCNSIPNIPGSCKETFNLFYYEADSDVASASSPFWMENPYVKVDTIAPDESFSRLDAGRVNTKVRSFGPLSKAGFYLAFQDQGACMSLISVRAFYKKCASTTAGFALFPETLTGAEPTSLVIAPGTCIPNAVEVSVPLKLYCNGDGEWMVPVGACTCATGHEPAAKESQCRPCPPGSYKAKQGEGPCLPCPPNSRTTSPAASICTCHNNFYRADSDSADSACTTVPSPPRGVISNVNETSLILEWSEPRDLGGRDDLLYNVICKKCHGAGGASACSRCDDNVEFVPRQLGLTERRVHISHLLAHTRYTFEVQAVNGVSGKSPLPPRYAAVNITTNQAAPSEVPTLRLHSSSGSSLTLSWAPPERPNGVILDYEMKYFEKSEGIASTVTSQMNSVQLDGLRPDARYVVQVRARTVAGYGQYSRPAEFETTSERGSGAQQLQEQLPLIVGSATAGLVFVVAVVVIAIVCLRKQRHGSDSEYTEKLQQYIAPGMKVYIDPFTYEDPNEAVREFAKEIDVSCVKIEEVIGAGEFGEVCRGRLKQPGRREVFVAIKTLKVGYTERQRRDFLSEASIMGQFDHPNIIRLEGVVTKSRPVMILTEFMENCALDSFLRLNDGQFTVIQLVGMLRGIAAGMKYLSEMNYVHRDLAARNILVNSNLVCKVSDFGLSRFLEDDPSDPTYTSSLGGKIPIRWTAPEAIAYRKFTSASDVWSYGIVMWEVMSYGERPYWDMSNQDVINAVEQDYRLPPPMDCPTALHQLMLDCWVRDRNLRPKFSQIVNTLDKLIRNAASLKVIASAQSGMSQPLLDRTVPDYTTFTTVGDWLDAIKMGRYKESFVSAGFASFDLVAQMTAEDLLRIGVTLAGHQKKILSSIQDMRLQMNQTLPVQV
UniProt Q99640, whole entry: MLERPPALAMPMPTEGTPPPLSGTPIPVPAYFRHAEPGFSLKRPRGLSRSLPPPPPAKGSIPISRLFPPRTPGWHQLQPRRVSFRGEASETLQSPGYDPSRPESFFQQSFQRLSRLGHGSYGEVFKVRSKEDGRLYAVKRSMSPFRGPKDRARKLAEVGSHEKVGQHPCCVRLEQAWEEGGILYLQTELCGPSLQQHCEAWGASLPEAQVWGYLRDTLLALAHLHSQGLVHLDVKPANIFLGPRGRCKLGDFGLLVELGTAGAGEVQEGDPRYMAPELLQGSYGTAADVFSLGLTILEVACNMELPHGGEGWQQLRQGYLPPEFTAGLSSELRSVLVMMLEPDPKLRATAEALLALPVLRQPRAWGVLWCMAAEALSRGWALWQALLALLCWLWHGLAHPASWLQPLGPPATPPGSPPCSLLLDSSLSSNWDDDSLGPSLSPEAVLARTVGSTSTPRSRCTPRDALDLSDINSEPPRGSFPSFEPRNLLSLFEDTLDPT

Row | SMILES | IC50 [1] [nM] | IC50 [2] [nM] | GI50 [3] [nM] | GI50 [4] [nM] | HLM (CLint) [5] [µL/min/mg] | Caco-2 A-B Papp [6] | Caco-2 EFFLUX RATIO [6] | IC50 [7] [nM] | IC50 [8] [nM] | LogD [9] | Solubility pH 7.4 [10] [μM]
1 | Cc1ccc(O)c(C)c1-n1c(N)c(C(N)=O)c2cn(C)c(=O)cc21 (single isomer, unassigned) [56, Isomer 1] | > 9970 | 2720 | 14900 | > 30000 | <3.000 | 0.772 1E−6.cm/s | 9.91 | 675 | 1420 | – | –
2 | Cc1ccc(O)c(C)c1-n1c(N)c(C(N)=O)c2cnc(-c3ccn(C)n3)nc21 (racemic) | > 9970 | 3840 | 12200 | > 30000 | 4.110 | – | – | 226 | 519 | 1.4 | 62
3 | Cc1ccc(O)c(C)c1-n1c(N)c(C(N)=O)c2cnc(N3CCOCC3)nc21 (single isomer, unassigned) [47, Isomer 1] | > 9970 | 54 | 3400 | 15700 | 14.288 | 17.626 1E−6.cm/s | 13.4 | 16 | 328 | – | –
4 | CCn1cc2c(C(N)=O)c(N)n(-c3c(C)ccc(O)c3C)c2nc1=O (single isomer, unassigned) [79, Isomer 1] | > 9970 | 786 | 4140 | 21200 | <3.000 | 0.859 1E−6.cm/s | 12.7 | 304 | 590 | – | –
5 | Cc1ccc(O)c(C)c1-n1c(N)c(C(N)=O)c2cnc(-c3cnc4n3CCC4)nc21 (racemic) | > 9970 | 1540 | 9820 | > 30000 | 16.900 | – | – | 54 | 380 | 2.2 | 30
6 | Cc1cc2c(cn1)c(C(N)=O)c(N)n2-c1c(C)ccc(O)c1C (single isomer, unassigned) [52, Isomer 1] | > 10000 | 727 | 28700 | > 30000 | <3.000 | 9.952 1E−6.cm/s | 3.4 | 31 | 641 | – | –
7 | Cc1ccc(O)c(C)c1-n1c(N)c(C(N)=O)c2cnc(Cl)nc21 (single isomer, unassigned) [57, Isomer 1] | > 9970 | > 9970 | > 30000 | 22600 | 8.110 | 11.695 1E−6.cm/s | 5.52 | 1020 | – | – | –
8 | Cc1ccc(O)c(C)c1-n1c(N)c(C(N)=O)c2cnc(-c3ccnn3C)nc21 (racemic) | > 9970 | 405 | 8050 | > 30000 | 14.900 | – | – | 30 | 874 | 2.2 | 977
9 | CCc1ncc2c(n1)c(-c1cc(O)ccc1C)c(N)n2C(N)=O (racemic) | > 9970 | 1860 | 13500 | > 30000 | 10.055 | – | – | 23 | 187 | 1.9 | >1000
10 | C=Cc1ncc2c(C(N)=O)c(N)n(-c3c(C)ccc(O)c3C)c2n1 (single isomer, unassigned) [17, Isomer 1] | > 9970 | 278 | 1400 | 4570 | 21.352 | – | – | 8 | 106 | – | –
11 | Cc1ccc(O)c(C)c1-n1c(N)c(C(N)=O)c2cnc(N3CCN(C)CC3)nc21 (single isomer, unassigned) [70, Isomer 2] | > 9970 | > 9970 | > 30000 | > 30000 | 17.436 | – | – | 1210 | > 9910 | – | –
12 | Cc1ccc(O)c(C)c1-n1c(N)c(C(N)=O)c2cnc(-c3cnn4c3CCCC4)nc21 (racemic) | 5280 | 310 | 2070 | 9720 | 43.000 | – | – | 15 | 243 | 2.6 | 130
13 | COc1ncc2c(C(N)=O)c(N)n(-c3c(C)ccc(O)c3C)c2n1 (racemic) | > 9970 | 619 | 4400 | 15600 | 7.340 | – | – | 33 | 326 | 1.5 | >1000
14 | Cc1ncc2c(C(N)=O)c(N)n(-c3c(Br)ccc(O)c3C)c2n1 (single isomer, unassigned) [86, Isomer 2] | 7040 | 5790 | 3260 | 17100 | 4.611 | – | – | 25 | 334 | – | –
15 | Cc1ccc(O)c(C)c1-n1c(N)c(C(N)=O)c2cn(C)c(=O)cc21 (single isomer, unassigned) [56, Isomer 2] | > 9970 | > 9970 | > 30000 | > 30000 | <3.000 | – | – | > 9970 | > 9910 | – | –
16 | Cc1ccc(O)c(C)c1-n1c(N)c(C(N)=O)c2cnc(C3CC3)nc21 (single isomer, unassigned) [50, Isomer 1] | > 10000 | 170 | 3650 | 6030 | 34.347 | – | – | 8 | 110 | – | –
17 | Cc1ccc(O)c(C)c1-n1c(N)c(C(N)=O)c2cnc(-c3cn[nH]c3)nc21 (racemic) | > 9970 | 1850 | 11100 | > 30000 | 16.800 | – | – | 31 | 331 | 1.8 | >1000
18 | Cc1ccc(O)c(C)c1-n1c(N)c(C(N)=O)c2cnc(C3CC3)nc21 (racemic) | > 9970 | 346 | 8620 | 10300 | 24.062 | – | – | 16 | 273 | 2.35 | >1000
19 | Cc1ccc(O)c(C)c1-n1c(N)c(C(N)=O)c2cnc(-c3cncn3C)nc21 (racemic) | > 9970 | 589 | 14200 | > 30000 | 10.900 | – | – | 132 | 2020 | 1.8 | 935
20 | Cc1ccc(O)c(C)c1-n1c(N)c(C(N)=O)c2cnc(C(C)C)nc21 (single isomer, unassigned) [48, Isomer 2] | > 9970 | > 9970 | 7560 | > 30000 | 29.010 | – | – | 576 | 6610 | – | –
21 | C=Cc1ncc2c(C(N)=O)c(N)n(-c3c(C)ccc(O)c3C)c2n1 (single isomer, unassigned) [17, Isomer 2] | > 9970 | > 9970 | > 30000 | > 30000 | 13.514 | – | – | 3620 | > 9910 | – | –
22 | Cc1ncc2c(C(N)=O)c(N)n(-c3c(Br)ccc(O)c3C)c2n1 (single isomer, unassigned) [86, Isomer 1] | > 9970 | > 9970 | > 30000 | > 30000 | <3.000 | – | – | 562 | 5750 | – | –
23 | Cc1ccc(O)c(C)c1-n1c(N)c(C(N)=O)c2cnc(C(C)C)nc21 (racemic) | > 9970 | 984 | 10400 | > 21500 | 47.123 | – | – | 23 | 317 | 2.49 | >1000
24 | Cc1ccc(O)c(C)c1-n1c(N)c(C(N)=O)c2cnc(-c3c(C)noc3C)nc21 (racemic) | > 9970 | 1330 | 2210 | 8000 | 43.700 | – | – | 22 | 431 | 2.6 | 218
25 | Cc1ccc(O)c(C)c1-n1c(N)c(C(N)=O)c2cnc(-c3cnn(C)c3)nc21 (racemic) | > 9970 | 643 | 10800 | > 30000 | 6.070 | – | – | 74 | 1100 | 1.8 | >1000
26 | Cc1nc(C)c(-c2ncc3c(C(N)=O)c(N)n(-c4c(C)ccc(O)c4C)c3n2)o1 (racemic) | > 9970 | 1820 | 3830 | 27700 | 12.000 | – | – | 25 | 342 | 2.5 | 31

— US20260384438A1, “PYRROLOPYRIMIDINE CARBOXAMIDES” (published 2026)
